Assay [1] concerns the target T1, CETP (Homo sapiens, UniProt P11597).
T1 sequence (P11597 18-493): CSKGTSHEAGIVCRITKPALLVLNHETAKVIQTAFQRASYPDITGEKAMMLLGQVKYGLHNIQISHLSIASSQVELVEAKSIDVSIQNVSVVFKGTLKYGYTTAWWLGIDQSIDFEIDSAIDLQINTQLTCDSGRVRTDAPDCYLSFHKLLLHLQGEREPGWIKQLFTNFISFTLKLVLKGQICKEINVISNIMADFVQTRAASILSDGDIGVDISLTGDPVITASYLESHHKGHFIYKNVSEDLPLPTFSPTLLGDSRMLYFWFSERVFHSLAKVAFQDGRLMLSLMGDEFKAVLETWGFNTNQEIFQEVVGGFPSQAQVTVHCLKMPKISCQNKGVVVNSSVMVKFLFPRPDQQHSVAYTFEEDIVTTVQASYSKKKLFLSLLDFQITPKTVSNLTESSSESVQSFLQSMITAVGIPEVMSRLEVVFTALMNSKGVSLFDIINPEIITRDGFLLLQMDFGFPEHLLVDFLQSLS
Nature of the assay: Whole serum CETP activity assay (tritiated cholesteryl ester). It counts as biochemical. Set-up: Blood was obtained from healthy volunteers recruited from the personnel of Monsanto Company; from tissue; host or cells: pooled human EDTA plasma or serum from healthy volunteers. The procedure:
Whole Serum CETP Activity Assay (Tritiated Colesterol Eter)
Blood was obtained from healthy volunteers recruited from the personnel of Monsanto Company, Saint Louis, Mo. Blood was either collected in tubes containing EDTA (EDTA plasma pool) or without (spun to form the serum pool). The EDTA human plasma pool or human serum pool, previously stored at −20° C., was thawed at room temperature, and centrifuged for 5 minutes to remove any particulate matter. Tritiated HDL, radiolabeled in the cholesteryl ester moiety ([^13H]CE-HDL) as described by Morton and Zilversmit (J. Biol. Chem., 256, 11992-95 (1981)), was added to the plasma or serum to a final concentration of (25 μg/ml cholesterol). […] Radioactivity was measured on a microplate scintillation counter (TopCount, Packard, Meriden, Conn.). […] The maximum percent transfer (in the control wells) was determined using the following equation: [formula] The percent of control transfer determined in the wells containing inhibitor compounds was determined as follows: [formula] IC50 values were then calculated from plots of % control versus concentration of inhibitor compound. Examples of IC50 values determined by this method are specified in Table 10 CETP Activity In Vitro

For assay [2], the target named is T1, CETP. Nature of the assay: CETP activity in vitro ([3H]CE transfer from HDL to LDL). It counts as biochemical. Set-up: made in house; host or cells: CHO cells (serum-free conditioned medium). The settings on record: CETP activity assay in vitro; read-out: CEPT Activity Assay IC50. Here is the method: The ability of compounds to inhibit CETP were assessed using an in vitro assay that measured the rate of transfer of radiolabled cholesteryl ester ([3H]CE) from HDL donor particles to LDL acceptor particles. Details of the assay are provided by Glenn et al. (“Quantification of Cholesteryl Ester Transfer Protein (CETP): A) CETP Activity and B) Immunochemical Assay of CETP Protein,” Meth. Enzymol., Glenn and Melton (Meth. Enzymol., 263, 339-351 (1996)). CETP was obtained from the serum-free conditioned medium of CHO cells transfected with a cDNA for CETP (Wang, S, et al. J. Biol Chem. 267, 17487-17490 1992). To measure CETP activity, [^3H]CE-labeled HDL, LDL, CETP and assay buffer (50 mM tris(hydroxymethyl)aminomethane, pH 7.4; 150 mM sodium chloride; 2 mM ethylenediamine-tetraacetic acid; 1% bovine serum albumin) were incubated in a volume of 200μ, for 2 hours at 37° C. in 96 well plates. LDL was differentially precipitated by the addition of 50 μl of 1% (w/v) dextran sulfate/0.5 M magnesium chloride, mixed by vortex, and incubated at room temperature for 10 minutes. The solution (200 μl) was transferred to a filter plate (Millipore). After filtration, the radioactivity present in the precipitated LDL was measured by liquid scintillation counting. […] The rate of [^3H]CE transfer using this assay was linear with respect to time and CETP concentration, up to 25-30% of [^3HCE transferred. […]

Usually IC50 stands for the concentration that gives 50% inhibition.

Turning to `OC(CN(Cc1cccc(OC(F)(F)C(F)F)c1)c1cccc(Oc2ccccc2)c1)C(F)(F)F` (centres unmarked) [Inhibitor 1-1N], the figures for the IC50 in assay [1] and in assay [2] were 6.9 µM and 0.15 µM, respectively.

The values are drawn from US6924313B1, “Substituted tertiary-heteroalkylamines useful for inhibiting cholesteryl ester transfer protein activity” (Pfizer Inc., priority 1999, dated 2005).
